Data on three substances can be found in patent US20070258988A1.

The target in one test is hMOR-1Y (human) (UniProt P35372). The test can be described thus: competition against [3H]DAMGO (~1 nM), membranes of stable CHO transfectants.
Test [1] has as its target rMOR-1A (rat). The description is as above.
Test [2] addresses rMOR-1 (rat) (UniProt P33535). The test is described as above.
Test [3] deals with rMOR-1 (no Exon 4) (rat) (UniProt P33535). Described as above.
For test [4], the target named is rMOR-1A (rat). The test can be described thus: cell-based or functional assay.
Test [5] has as its target rMOR-1C1 (rat). Briefly: cell-based or functional assay.
In test [6] the target is rMOR-1 (rat) (UniProt P33535). The test can be described thus: cell-based or functional assay.
The target of test [7] is rMOR-1 (no Exon 4) (rat) (UniProt P33535). Briefly: cell-based or functional assay.
The target in the next test is hMOR-1B3 (human) (UniProt P35372). The test can be described thus: competition against [3H]DAMGO (~1 nM), membranes of stable CHO transfectants.
Another test concerns the target hMOR-1B5 (human) (UniProt P35372). The description is as above.
The target of test [8] is rMOR-1C1 (rat). The description is as above.
The next test concerns the target rMOR-1D (rat). Described as above.
Another test has as its target hMOR-1 (human) (UniProt P35372). The description is as above.
The next test has as its target hMOR-1A (human). The test is described as above.
The next test concerns the target hMOR-1B2 (human) (UniProt P35372). The description is as above.
For the next test, the target named is hMOR-1B4 (human) (UniProt P35372). Described as above.

As usually defined, the Ki is the equilibrium dissociation constant of an inhibitor or competing ligand from its target. A lower Ki goes with higher affinity. DADLE (peptide) returned a Ki with hMOR-1Y (human) of 6.5 nM.
In the case of Endomorphin 1 (peptide), the values for the Ki in the test with rMOR-1A (rat) [1], with rMOR-1 (rat) [2] and with rMOR-1 (no Exon 4) (rat) [3] were 6.5 nM, 4.1 nM and 4.4 nM, respectively. The EC50 (nM), stimulation of [35S]GTPγS binding came out at 15 nM in the test with rMOR-1A (rat) [4], 54 nM with rMOR-1C1 (rat) [5], 14 nM with rMOR-1 (rat) [6] and 114 nM with rMOR-1 (no Exon 4) (rat) [7].
Endomorphin 2 (peptide): the Ki with hMOR-1B3 (human) came out at 6.3 nM; in the test with hMOR-1B5 (human) it was 9.6 nM; in the test with rMOR-1C1 (rat) [8], 10.1 nM; with hMOR-1Y (human) it was 9.4 nM; with rMOR-1D (rat), 7.5 nM; in the test with hMOR-1 (human) it was 34.1 nM. Further, the Ki with rMOR-1 (no Exon 4) (rat) [3] amounted to 9.1 nM; with hMOR-1A (human), 5.6 nM; in the test with hMOR-1B2 (human), 19.9 nM; in the test with hMOR-1B4 (human), 22.5 nM.
